## Apparent affinities of Ab-14 variants for a coronavirus HR2 peptide

Data: MIT Lincoln Laboratory AlphaSeq set, Li et al. 2023, doi:10.1038/s41467-023-39022-2, as distributed in FLAb.

All variants were tested on one target, the spike HR2 peptide PDVDLGDISGINAS (SARS-CoV-2).

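The parent was found by panning a naive human phage display library on the peptide. The variants were designed computationally from a first round of random CDR variants and then made and measured. Group labels follow the data file (Ctrl: baseline library sampled from a position-specific scoring matrix, with some repeated check sequences; En: ensemble of fine-tuned language models; GP: Gaussian process model; HC: hill climbing; Gen: genetic algorithm; Gibbs: Gibbs sampling; a sequence that several methods proposed may carry one label only). Affinity was read by AlphaSeq, a pooled yeast mating assay with surface-displayed partners. Mating (16 h, 30 °C) was followed by selection of diploids and sequencing of their barcodes. The ratio of observed to expected reads was calibrated, replicate by replicate, on BCL2-family standards whose Kd was known from biolayer interferometry. The assay was run in six technical replicates.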

Ab-14 is the parent antibody, in scFv form: VH, then a 15-residue (Gly4Ser)3 linker, then VL. The heavy chain is unchanged in all variants.
VH: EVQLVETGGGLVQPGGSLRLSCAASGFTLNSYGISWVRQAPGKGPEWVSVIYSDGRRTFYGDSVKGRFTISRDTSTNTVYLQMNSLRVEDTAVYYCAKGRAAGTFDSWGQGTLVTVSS
VL: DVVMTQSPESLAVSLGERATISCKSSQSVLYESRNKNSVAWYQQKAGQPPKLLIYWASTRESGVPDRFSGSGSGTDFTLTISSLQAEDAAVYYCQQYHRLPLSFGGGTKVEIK

The parent's light chain CDRs are KSSQSVLYESRNKNSVA, WASTRES, QQYHRLPLS; each variant's own CDRs replace them letter for letter.
Each Kd is an estimate from the mating assay, the geometric mean of the replicates in which the pair was seen; lower is stronger.
Where no diploid with the target was found in any replicate, the entry reads "nd": below detection, most likely a poor binder, though not proof of it.
Values of this round are not directly comparable with the first-round values of the same sequences.
In the paper, a design with two or fewer of six values counts as a poor binder.
Of ten entries with the parent sequence, four were seen in most replicates (averages 2.2 nM to 240 nM), three in one and three in none, so single entries are noisy.
Three control strains display no target. For all light chain designs, 4% of the pairings with them gave a signal, with a median of 430 nM and one signal in twenty below 38 nM, so weak values seen in few replicates may be background.

{"CDR-L1": "KMQQSWLYESRNKNSVA", "CDR-L2": "NASQRES", "CDR-L3": "QQYHRLPLS", "group": "GP_Gen", "Kd (apparent)": "230 pM", "detected": "6/6"}
{"CDR-L1": "KSSWSVLYESGNKNSVA", "CDR-L2": "HASTRMD", "CDR-L3": "QQYHRLPLS", "group": "GP_HC", "Kd (apparent)": "3.1 nM", "detected": "6/6"}
{"CDR-L1": "KSSQSVLYESRNKNSVA", "CDR-L2": "AASTRES", "CDR-L3": "QQYHRTPLS", "group": "Ctrl", "Kd (apparent)": "6.3 nM", "detected": "6/6"}
{"CDR-L1": "KSSQSVLDESRNKNSVA", "CDR-L2": "WASTRES", "CDR-L3": "QQYHSLPLS", "group": "Ctrl", "Kd (apparent)": "27 nM", "detected": "2/6"}
{"CDR-L1": "KSWNSCEDEFRNSNSVA", "CDR-L2": "WASTRES", "CDR-L3": "QQYGRLPLS", "group": "Ctrl", "Kd (apparent)": "nd", "detected": "0/6"}
{"CDR-L1": "KLMNSMLYESRNVNNVA", "CDR-L2": "NASQREL", "CDR-L3": "QQYHRLPLS", "group": "GP_Gibbs", "Kd (apparent)": "890 pM", "detected": "6/6"}
{"CDR-L1": "KLAMALSVEFGTYHGVA", "CDR-L2": "DADHRAD", "CDR-L3": "QQYNRLPLS", "group": "En_Gibbs", "Kd (apparent)": "3.3 nM", "detected": "6/6"}
{"CDR-L1": "KSSISYLYSSRMKNSVA", "CDR-L2": "EASTRES", "CDR-L3": "QQYHRLPLS", "group": "GP_HC", "Kd (apparent)": "6.5 nM", "detected": "6/6"}
{"CDR-L1": "KLYQSMGYLSHEKNSIA", "CDR-L2": "DMSRREN", "CDR-L3": "QQYHRLPLS", "group": "En_HC", "Kd (apparent)": "1.1 nM", "detected": "6/6"}
{"CDR-L1": "MMSQVTGQGQRHRNNVA", "CDR-L2": "QTSMREP", "CDR-L3": "QQYDRLPLI", "group": "En_Gen", "Kd (apparent)": "7.8 nM", "detected": "6/6"}
{"CDR-L1": "KLQQSELYESRNQNSVA", "CDR-L2": "GASTRLE", "CDR-L3": "QQYHRLPLS", "group": "GP_Gibbs", "Kd (apparent)": "2.6 nM", "detected": "6/6"}
{"CDR-L1": "KFSQSVLYESRTSNDVA", "CDR-L2": "NASTRES", "CDR-L3": "QQYHRLPLS", "group": "GP_HC", "Kd (apparent)": "2.8 nM", "detected": "6/6"}
{"CDR-L1": "KLQQSELYESRNKNSVA", "CDR-L2": "NASQRED", "CDR-L3": "QQYHRLPLS", "group": "GP_Gen", "Kd (apparent)": "580 pM", "detected": "6/6"}
{"CDR-L1": "KSSQSIGYESRNKNSVA", "CDR-L2": "WASTRNS", "CDR-L3": "QQYHRLPLS", "group": "Ctrl", "Kd (apparent)": "160 nM", "detected": "6/6"}
{"CDR-L1": "KIGATLNMMEHKKNNVA", "CDR-L2": "DLVTREN", "CDR-L3": "QQYHRLPLS", "group": "En_Gen", "Kd (apparent)": "3.1 nM", "detected": "6/6"}
{"CDR-L1": "KVSWSYLLESRNKNSVA", "CDR-L2": "EASTRES", "CDR-L3": "QQYHRLPLS", "group": "GP_HC", "Kd (apparent)": "590 pM", "detected": "6/6"}
{"CDR-L1": "MFSQLTYMGSRARNAVA", "CDR-L2": "QAETRVN", "CDR-L3": "QQYHHLPLF", "group": "En_HC", "Kd (apparent)": "14 nM", "detected": "6/6"}
{"CDR-L1": "KLSWVQGHMSVSKNNVA", "CDR-L2": "EMETRVN", "CDR-L3": "QQYDRLPLS", "group": "En_Gen", "Kd (apparent)": "1.4 nM", "detected": "6/6"}

The closing 2 entries, repeated:

{"CDR-L1": "MFSQLTYMGSRARNAVA", "CDR-L2": "QAETRVN", "CDR-L3": "QQYHHLPLF", "group": "En_HC", "Kd (apparent)": "14 nM", "detected": "6/6"}
{"CDR-L1": "KLSWVQGHMSVSKNNVA", "CDR-L2": "EMETRVN", "CDR-L3": "QQYDRLPLS", "group": "En_Gen", "Kd (apparent)": "1.4 nM", "detected": "6/6"}